Measured affinities in a library of Ab-95 light chain variants

Values reported by Engelhart et al. 2022, doi:10.1038/s41597-022-01779-4 (FLAb copy).

Target: peptide PDVDLGDISGINAS, taken from heptad repeat 2 (HR2) of SARS-CoV-2 spike.

Parent: Ab-95, a human scFv built as VH, a 15-residue (Gly4Ser)3 linker, VL. Only the CDRs of the light chain vary.
VH: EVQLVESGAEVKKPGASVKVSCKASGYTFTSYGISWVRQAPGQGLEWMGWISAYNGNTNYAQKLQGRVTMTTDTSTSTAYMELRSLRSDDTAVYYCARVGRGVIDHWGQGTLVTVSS
VL: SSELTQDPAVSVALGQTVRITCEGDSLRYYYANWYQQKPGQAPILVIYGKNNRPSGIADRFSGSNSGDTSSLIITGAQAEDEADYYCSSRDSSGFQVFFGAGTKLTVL

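The starting antibody came from a phage panning campaign against this peptide. Variants in AAYL52 differ from the parent at up to three CDR positions; double and triple changes were sampled at random. In AlphaSeq, yeast of one mating type display the scFv and yeast of the other type display the target. The frequency of each diploid, read from paired DNA barcodes, reflects how well the two displayed proteins bind. Each replicate has its own calibration line, from reference interactions of the BCL2 family. Mating was done three times.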

Variants are written as CDR1, CDR2 and CDR3 of the light chain (limits as in the source). Parent: EGDSLRYYYAN, GKNNRPS, SSRDSSGFQVF. Every variant below is changed at R28 of the VL (sequential numbering). Affinities are written as log10 Kd with Kd in nM; a lower number is a better binder. The mean shown is taken over the replicates in which the pair was detected. Where no diploid with the target was found in any replicate, the entry reads "nd": below detection, most likely a poor binder, though not proof of it. Order: sorted from the lowest average up, undetected variants last. Parent in this assay: reference entry 2.31, copy in this library 2.25.

- EGDSLKYYYAN / GKNNRPS / SSRDSSGFQVF -> 1.78 (3 of 3 replicates)
- EGQSLQYYYAN / GKNNRPS / SSRDSSGFQVF -> 1.83 (3 of 3 replicates)
- EGDSLNYYYAN / GKNNRPS / SSRDSRMFQVF -> 2.09 (3 of 3 replicates)
- EGDSLGYYYAN / GKNNRPS / SSRDSSGFQVF -> 2.17 (3 of 3 replicates)
- EGQSLAYYYAN / GKNNRPS / SSRDSVGFQVF -> 2.18 (3 of 3 replicates)
- MGDSLGYYYAN / GKNNRPS / SSRDSSGFQVF -> 2.38 (3 of 3 replicates)
- EGDSLDYYYAN / GKNNRPS / SSRISSGFQVF -> 2.52 (3 of 3 replicates)
- EGDSLDYDYAN / GKNNRPS / SSPDSSGFQVF -> 2.72 (3 of 3 replicates)
- FGDSLSSYYAN / GKNNRPS / SSRDSSGFQVF -> 2.77 (3 of 3 replicates)
- EGDSLMYYYAN / GKDARPS / SSRDSSGFQVF -> 2.78 (3 of 3 replicates)
- EGSVLQYYYAN / GKNNRPS / SSRDSSGFQVF -> 3.07 (1 of 3 replicates)
- EGRSLYYYYAN / GKNNRPS / SSRDSSYFQVF -> 3.19 (3 of 3 replicates)
- EQHSLEYYYAN / GKNNRPS / SSRDSSGFQVF -> 3.23 (2 of 3 replicates)
- EGDDLCYYYAN / GKNNRPS / SSRDSSGFLVF -> 3.25 (1 of 3 replicates)
- EGDSLQYYYAN / GKNNRPS / SQRDSSGFWVF -> 3.27 (3 of 3 replicates)
- EGDSLPYYYAN / NKNNRPS / PSRDSSGFQVF -> 3.32 (3 of 3 replicates)
- EGDSLGYDYAN / GKNNEPS / SSRDSSGFQVF -> 3.37 (2 of 3 replicates)
- EGDSLFYYYAN / GKNWRPS / SSRDSSGTQVF -> 3.38 (3 of 3 replicates)
- EGDSLMYYYAN / GKHNRPS / GSRDSSGFQVF -> 3.42 (2 of 3 replicates)
- EGDSLYYYYLN / GKNNRPS / SSRDESGFQVF -> 3.42 (3 of 3 replicates)
- EGDSLFYYWAN / GKDNRPS / SSRDSSGFQVF -> 3.49 (2 of 3 replicates)
- ETDSLCYYYAN / GKNNRPS / SSIDSSGFQVF -> 3.53 (2 of 3 replicates)
- EGDSLYYYYAN / GKNNRPS / SSRQSSGFQVT -> 3.89 (1 of 3 replicates)
- EGDSLGYYYAN / SKNNRPS / SSRDSSGFQKF -> 3.92 (2 of 3 replicates)
- EGCSLFYYYAN / GKNNRPS / VSRDSSGFQVF -> 4.13 (2 of 3 replicates)
- EGMSLIYYYAN / GQNNRPS / SSRDSSGFQVF -> 4.16 (3 of 3 replicates)
- EGDSLAYYYAN / LKNNYPS / SSRDSSGFQVF -> 4.28 (1 of 3 replicates)
- EGDSLTYYYAK / GKNNRPS / SSRDCSGFQVF -> 4.40 (1 of 3 replicates)
- EGDSLHYYYAN / GKRNRPS / SSRHSSGFQVF -> 4.68 (3 of 3 replicates)
- EGDSLYYEYAN / GKNNRPS / SSRMSSGFQVF -> 5.11 (2 of 3 replicates)
- EGDCLTYYYAN / GKNNRPS / SSRDSRGFQVF -> 5.58 (1 of 3 replicates)
- EGDSLCYYYAN / FKNNRPS / SSRDSSGFNVF -> nd (0 of 3 replicates)

Picked from the list: the 5 lowest averages where every replicate gave a value.

CDR-L1	CDR-L2	CDR-L3	log10 Kd (nM), mean	detected
EGDSLKYYYAN	GKNNRPS	SSRDSSGFQVF	1.78	3 of 3
EGQSLQYYYAN	GKNNRPS	SSRDSSGFQVF	1.83	3 of 3
EGDSLNYYYAN	GKNNRPS	SSRDSRMFQVF	2.09	3 of 3
EGDSLGYYYAN	GKNNRPS	SSRDSSGFQVF	2.17	3 of 3
EGQSLAYYYAN	GKNNRPS	SSRDSVGFQVF	2.18	3 of 3

Nonspecific signal, from three strains lacking the peptide, appeared in 28% of pairings of library AAYL52, centred on 3.91 (5% of these signals below 2.90); values are not corrected for it.